Holding throughout (experiment): cAMP assay in transfected CHO-K1 cells
Background: Changes in cAMP serve as a functional read-out for many G protein-coupled receptors.

Protein sequences, listed by entry. Tags and fused reporters are not part of them. Chains listed by the source or under a name are the forms on record and can include a tag or linker. Residues count along the entry.
UniProt Q13324, whole entry: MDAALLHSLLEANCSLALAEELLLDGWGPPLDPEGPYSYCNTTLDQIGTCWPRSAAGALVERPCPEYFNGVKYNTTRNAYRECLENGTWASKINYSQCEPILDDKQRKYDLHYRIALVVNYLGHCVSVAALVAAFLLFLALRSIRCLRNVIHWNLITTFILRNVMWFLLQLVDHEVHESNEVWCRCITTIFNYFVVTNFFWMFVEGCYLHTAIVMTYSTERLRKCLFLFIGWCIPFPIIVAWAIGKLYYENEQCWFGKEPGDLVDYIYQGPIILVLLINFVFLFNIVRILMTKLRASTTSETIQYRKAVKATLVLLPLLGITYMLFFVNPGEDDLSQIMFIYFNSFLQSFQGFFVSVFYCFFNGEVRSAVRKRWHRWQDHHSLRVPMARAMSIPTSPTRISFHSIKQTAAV
UniProt Q13324, 1-438 with tags or gaps: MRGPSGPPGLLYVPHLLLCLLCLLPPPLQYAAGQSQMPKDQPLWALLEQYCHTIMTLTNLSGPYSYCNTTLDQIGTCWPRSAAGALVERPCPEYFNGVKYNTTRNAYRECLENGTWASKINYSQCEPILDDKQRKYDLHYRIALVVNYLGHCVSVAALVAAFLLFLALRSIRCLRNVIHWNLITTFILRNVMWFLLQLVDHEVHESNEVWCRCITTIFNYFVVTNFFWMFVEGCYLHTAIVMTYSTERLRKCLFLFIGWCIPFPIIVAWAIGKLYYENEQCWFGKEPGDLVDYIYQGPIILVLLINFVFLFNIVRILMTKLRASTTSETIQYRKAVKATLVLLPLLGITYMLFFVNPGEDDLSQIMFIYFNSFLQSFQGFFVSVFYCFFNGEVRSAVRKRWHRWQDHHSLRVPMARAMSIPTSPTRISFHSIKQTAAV
UniProt Q13324, 1-397 with tags or gaps: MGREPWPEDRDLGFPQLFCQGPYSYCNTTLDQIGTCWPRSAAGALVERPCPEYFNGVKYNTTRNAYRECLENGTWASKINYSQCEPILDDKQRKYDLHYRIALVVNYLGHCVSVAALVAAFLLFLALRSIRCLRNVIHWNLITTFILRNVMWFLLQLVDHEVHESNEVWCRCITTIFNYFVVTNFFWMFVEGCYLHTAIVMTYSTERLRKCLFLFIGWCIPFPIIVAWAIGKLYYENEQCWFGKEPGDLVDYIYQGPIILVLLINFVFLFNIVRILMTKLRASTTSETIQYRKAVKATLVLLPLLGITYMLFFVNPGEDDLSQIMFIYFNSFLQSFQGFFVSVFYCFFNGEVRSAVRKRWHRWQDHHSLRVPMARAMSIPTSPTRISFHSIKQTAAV
UniProt A0A2K5WPT1, 24-415 limits assumed: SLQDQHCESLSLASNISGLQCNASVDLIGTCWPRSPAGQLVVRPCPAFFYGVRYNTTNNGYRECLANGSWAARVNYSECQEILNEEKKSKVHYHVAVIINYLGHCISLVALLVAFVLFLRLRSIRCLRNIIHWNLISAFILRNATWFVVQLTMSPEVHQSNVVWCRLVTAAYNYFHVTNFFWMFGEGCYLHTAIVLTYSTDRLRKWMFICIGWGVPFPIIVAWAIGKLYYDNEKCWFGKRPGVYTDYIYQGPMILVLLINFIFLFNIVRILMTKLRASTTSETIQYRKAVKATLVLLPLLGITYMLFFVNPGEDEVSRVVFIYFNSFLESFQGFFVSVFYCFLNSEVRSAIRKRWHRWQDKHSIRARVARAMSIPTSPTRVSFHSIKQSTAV
UniProt A0A8I3PB95, 31-437 limits assumed: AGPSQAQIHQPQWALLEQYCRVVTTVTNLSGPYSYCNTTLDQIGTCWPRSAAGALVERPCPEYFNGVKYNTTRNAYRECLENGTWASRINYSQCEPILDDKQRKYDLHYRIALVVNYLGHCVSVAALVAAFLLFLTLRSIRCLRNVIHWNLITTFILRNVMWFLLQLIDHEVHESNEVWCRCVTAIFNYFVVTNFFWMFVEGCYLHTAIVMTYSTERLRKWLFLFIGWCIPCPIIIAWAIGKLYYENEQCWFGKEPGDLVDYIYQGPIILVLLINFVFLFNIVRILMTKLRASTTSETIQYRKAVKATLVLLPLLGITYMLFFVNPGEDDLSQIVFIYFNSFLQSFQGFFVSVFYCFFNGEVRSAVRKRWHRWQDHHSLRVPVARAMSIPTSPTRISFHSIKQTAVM
UniProt P34998, 24-415 limits assumed: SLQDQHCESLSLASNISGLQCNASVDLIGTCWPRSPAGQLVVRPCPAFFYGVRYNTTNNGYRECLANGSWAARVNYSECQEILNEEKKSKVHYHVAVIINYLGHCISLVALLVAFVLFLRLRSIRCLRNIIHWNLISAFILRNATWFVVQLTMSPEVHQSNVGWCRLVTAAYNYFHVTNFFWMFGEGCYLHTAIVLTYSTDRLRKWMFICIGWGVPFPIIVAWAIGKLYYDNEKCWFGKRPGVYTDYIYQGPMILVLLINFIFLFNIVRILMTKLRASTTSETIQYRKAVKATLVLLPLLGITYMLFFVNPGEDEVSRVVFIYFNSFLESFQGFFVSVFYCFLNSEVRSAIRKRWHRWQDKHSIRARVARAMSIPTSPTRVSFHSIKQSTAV
UniProt P35353, 24-415 limits assumed: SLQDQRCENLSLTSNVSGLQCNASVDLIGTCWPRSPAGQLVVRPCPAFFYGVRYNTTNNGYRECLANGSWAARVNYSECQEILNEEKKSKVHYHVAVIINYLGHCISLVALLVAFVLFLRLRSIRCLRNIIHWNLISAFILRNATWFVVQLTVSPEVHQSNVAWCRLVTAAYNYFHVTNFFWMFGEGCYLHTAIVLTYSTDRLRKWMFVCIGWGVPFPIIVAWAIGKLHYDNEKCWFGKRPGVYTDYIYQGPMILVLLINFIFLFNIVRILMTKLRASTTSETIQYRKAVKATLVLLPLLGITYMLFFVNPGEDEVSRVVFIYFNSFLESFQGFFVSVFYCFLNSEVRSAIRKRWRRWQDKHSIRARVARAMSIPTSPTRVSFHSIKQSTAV
UniProt A0A2K5WS31, 30-431 limits assumed: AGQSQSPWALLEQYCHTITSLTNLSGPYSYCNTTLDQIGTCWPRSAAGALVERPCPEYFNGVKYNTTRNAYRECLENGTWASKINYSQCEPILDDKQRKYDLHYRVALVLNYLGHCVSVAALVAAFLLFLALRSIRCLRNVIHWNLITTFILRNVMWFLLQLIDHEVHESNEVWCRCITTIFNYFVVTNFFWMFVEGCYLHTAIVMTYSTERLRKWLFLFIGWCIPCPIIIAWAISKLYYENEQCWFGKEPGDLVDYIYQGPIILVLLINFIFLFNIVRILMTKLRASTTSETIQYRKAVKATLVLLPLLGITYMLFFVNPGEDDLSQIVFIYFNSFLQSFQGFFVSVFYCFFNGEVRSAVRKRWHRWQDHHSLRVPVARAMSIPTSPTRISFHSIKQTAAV
UniProt P47866, 1-431 with tags or gaps: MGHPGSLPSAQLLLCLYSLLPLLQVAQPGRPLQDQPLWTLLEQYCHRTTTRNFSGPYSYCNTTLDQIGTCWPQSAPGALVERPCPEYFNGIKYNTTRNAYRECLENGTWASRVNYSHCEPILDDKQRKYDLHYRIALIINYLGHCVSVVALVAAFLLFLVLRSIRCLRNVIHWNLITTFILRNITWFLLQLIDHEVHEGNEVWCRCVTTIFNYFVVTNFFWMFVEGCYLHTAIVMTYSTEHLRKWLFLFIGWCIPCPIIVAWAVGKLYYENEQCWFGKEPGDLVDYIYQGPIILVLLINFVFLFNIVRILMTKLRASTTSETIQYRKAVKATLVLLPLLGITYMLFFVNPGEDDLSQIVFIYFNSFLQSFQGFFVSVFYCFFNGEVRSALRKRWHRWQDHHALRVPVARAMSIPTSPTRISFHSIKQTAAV
UniProt A0A8I3PHA9, 24-415 limits assumed: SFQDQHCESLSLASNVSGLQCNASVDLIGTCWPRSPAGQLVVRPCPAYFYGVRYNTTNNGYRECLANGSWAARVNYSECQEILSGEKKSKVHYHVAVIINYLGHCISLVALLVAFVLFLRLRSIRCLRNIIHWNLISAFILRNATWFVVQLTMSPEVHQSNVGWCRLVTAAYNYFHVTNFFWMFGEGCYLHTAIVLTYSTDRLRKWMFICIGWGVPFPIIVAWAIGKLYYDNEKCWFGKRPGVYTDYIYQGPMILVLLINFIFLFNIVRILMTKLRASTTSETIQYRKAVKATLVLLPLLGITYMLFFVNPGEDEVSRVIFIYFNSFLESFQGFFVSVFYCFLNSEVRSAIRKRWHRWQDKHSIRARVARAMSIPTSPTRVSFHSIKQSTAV

The target in one experiment is human CRF-R2 alpha (Homo sapiens, UniProt Q13324). As to conditions: for IC50: mean of 3 data points (n=3). As to the method:
(§1) cAMP was determined utilizing a DiscoverX HitHunter assay Enzyme Fragment Complementation (EF) technology purchased from Eurofins as described in the manufacturing instructions with some adjustments. IC50's were calculated from antagonist dose response curves utilizing interpolated cAMP levels and/or relative light unit (RLU) data. In addition, eXpress assay ready cAMP kits were also utilized with hCRF-R1 and hCRF-R2 division arrested cells according to the manufacturing instructions. Briefly, antagonist dilutions were prepared in assay buffer: Gibco Hank's Buffered Salt Solution (Gibco 30-410, HBSS) supplemented with + 10 mM HEPES Buffer (Gibco 15630-080), containing 6X Tween-20 (Gibco BP337-100; final concentration in wells 0.01%). After removal of the culture media in cells, assay buffer (30 µl) was added to each of the wells on the plate utilizing a multichannel pipettor (INTEGRA VIAFLO 300 µl). The various antagonist dilutions (7.5 µl) at 6X concentration were added to the wells according to the assay protocol plate map and the plate was incubated for 30 min at 37°C. To compare the effects of albumin on the antagonist IC50, assays were also performed by diluting the compounds as described above in assay buffer containing 0.1% [w:v] bovine serum albumin (BSA) or no BSA (Bovine Albumin Fraction V, Fatty Acid Free: MP Biomedicals, Cat. 152401, Lot. S8210). Immediately thereafter, 7.5 µl (6X) of agonist (hCRF for hCRF-R1, hUCN1 for hCRF-R2) was added at a final concentration of 1 nM/well; approximately EC80) followed by a further incubation for 30 min at 37°C. Following the incubation of the antagonists and agonists, 15 µl of Eurofins HitHunter cAMP antibody solution and 60 µl of the Working Detection Solution were added followed by a 1 h incubation at room temperature in the dark. Finally, 60 µl of cAMP Solution A was added followed by a further incubation overnight (approx. 18 h). The total final reaction volume was 180 µl/well. The resulting chemiluminescent signal was measured in a Tecan Spark luminometer.
(§2) For transient transfections, plasmid constructs were supplied by GenScript for rat, cynomolgus monkey, and canine CRF-R1 alpha, and CRF-R2 beta subtypes, as well as human CRF-R1 alpha and CRF-R2 alpha, beta and gamma subtypes all cloned into a pCDNA3.1 (Neo^R) vector. Briefly, Chinese hamster ovary strain K1 (CHO-K1) parental cells were expanded from a liquid nitrogen-stored working bank vial (1.0E+6 cells) by thawing at 37°C for 60 seconds, followed by expansion in 30 ml CHO-K1 Complete Media in a T-225 flask. Cells were passaged at least once by aspirating-out used culture media and washing adherent cells once in phosphate buffered saline without divalent cations (Intermountain BSS-PBS-1X6), followed by dislodging the adherent cells using Enzyme-free cell dissociation buffer (EFDB, Millipore Sigma C5789) and subsequent continued culture in complete media.
(§3) On Day 0, CHO-K1 parental cells were harvested when ~ 90% confluent, seeded into 6-well plates (Costar 3516) at approximately 400,000 cells/well, and cultured overnight in complete media. On Day +1 the cells were monitored for optimal confluence (60-75%), health, cell distribution and morphology, and the media was changed by aspiration with the addition of 2mL fresh complete media. Lipid:DNA complexes were prepared by either: (i) mixing 2.5 µg of plasmid DNA into 500 µl OptiMEM reduced serum media (Gibco Cat# 31985062) together with 9 µl of Lipofecamine LTX (Invitrogen™ Cat# 15338100) followed by incubation for 25 minutes at room temperature; or (ii) mixing 2.0 µg of plasmid DNA into 82 µl OptiMEM with 16 µl of FuGENE 6 (Promega Cat# E2691), at a 4:1 lipid:pDNA volume ratio, followed by incubation for 45 minutes at room temperature. Lipid:DNA complexes were subsequently added dropwise directly onto cells on the 6-well plate. […]

Experiment [1] addresses cynomolgus monkey CRF-R1 alpha (Macaca fascicularis, UniProt A0A2K5WPT1). As to conditions: read-out: CRFR1 (IC50 nM); Cyno; mean of 3 data points (n=3). As for the experimental part:
as §1, §2, §3

The next experiment concerns the target canine CRF-R2 beta (Canis lupus familiaris, UniProt A0A8I3PB95). As to conditions: read-out: CRFR2β (IC50 nM); Dog; mean of 3 data points (n=3). As for the experimental part: as §1, §2, §3
In a further experiment the target is human CRF-R2 beta (Homo sapiens, UniProt Q13324). As to conditions: for IC50: mean of 3 data points (n=3). As to the method: as §1, §2, §3
A further experiment addresses human CRF-R1 alpha (Homo sapiens, UniProt P34998). As to conditions: mean of 3 data points (n=3). As for the experimental part: as §1, §2, §3
A further experiment concerns the target human CRF-R2 gamma (Homo sapiens, UniProt Q13324). As to conditions: read-out: CRFR2γ (IC50 nM), mean of 3 data points (n=3). As to the method:
as §1, §2, §3

In the next experiment the target is rat CRF-R1 alpha (Rattus norvegicus, UniProt P35353). As to conditions: read-out: CRFR1 (IC50 nM), mean of 3 data points (n=3). As to the method:
as §1, §2, §3

Experiment [2] deals with cynomolgus monkey CRF-R2 beta (Macaca fascicularis, UniProt A0A2K5WS31). As to conditions: read-out: CRFR2β (IC50 nM); Cyno; mean of 3 data points (n=3). As to the method:
as §1, §2, §3

The target of the next experiment is rat CRF-R2 beta (Rattus norvegicus, UniProt P47866). As to conditions: read-out: CRFR2β (IC50 nM), mean of 3 data points (n=3). As for the experimental part:
as §1, §2, §3

A further experiment concerns the target canine CRF-R1 alpha (Canis lupus familiaris, UniProt A0A8I3PHA9). As to conditions: read-out: CRFR1 (IC50 nM); Dog; mean of 3 data points (n=3). As to the method: as §1, §2, §3

We go through one substance from patent publication EP4847524A2, “FATTY ACID CONJUGATED CYCLIC PEPTIDES” (dated 2026).

Where two headings read alike, the source gives them in different places.

As a reminder, the IC50 is the concentration that gives 50% inhibition. With “Ac-Asp-Leu-Thr-D-Phe-His-Leu-Leu-Arg-Glu-Val-Leu-Glu-Nle-K*-Arg-Glu-Glu-Gln-cVal-Ala-Gln-E#-Ala-Glu-K#-Asn-Arg-Lys-Leu-Nle-Glu-cVal-Ala-CONH2”, the “selectivity for CRF1 over CRFR2α” value on human CRF-R2 alpha (ratio of cAMP IC50 values) is given as “approximately 10 times”. Moreover, the IC50 on human CRF-R2 alpha (read-out: CRFR2α (IC50 nM), Human) worked out at 16 nM; on human CRF-R2 alpha (read-out: IC50 for CRFR2α, Table 16) it was 16 nM; in experiment [1], 1.2 nM; on canine CRF-R2 beta it was 24 nM; at human CRF-R2 beta (read-out: CRFR2β (IC50 nM), Human), 12 nM; at human CRF-R2 beta (read-out: IC50 for CRFR2β, Table 16), 12 nM. The IC50 stood at 1.6 nM at human CRF-R1 alpha (read-out: CRFR1 (IC50 nM), Human); 1.6 nM on human CRF-R1 alpha (read-out: IC50 for CRFR1, Table 16); 3.8 nM on human CRF-R2 gamma; 1.4 nM on rat CRF-R1 alpha; 24 nM in [2]; 40 nM at rat CRF-R2 beta. Further, the IC50 at canine CRF-R1 alpha worked out at 2.4 nM. The “selectivity for CRF1 over CRFR2β” value at human CRF-R2 beta (ratio of cAMP IC50 values) is on record as “approximately 8 times”.
